For one assay, the target named is T1, M(1) muscarinic receptor (Homo sapiens, UniProt P11229).
T1 construct: expressed in transfected cells
Briefly: R-SAT functional receptor assay, M(1). The class given is cell-based. The text has this: (§1) The functional receptor assay, Receptor Selection and Amplification Technology (R-SAT), essentially as disclosed in U.S. Pat. Nos. 5,707,798, 5,912,132, and 5,955,281, which are all hereby incorporated by reference in their entirety, was used to investigate the pharmacological properties of known and novel muscarinic agonists.

By UniProt entry, the sequences of proteins in these tests, tags left out. Where a name states a change or a piece, a line headed by the entry shows the natural chain unless it says otherwise.
UniProt P11229: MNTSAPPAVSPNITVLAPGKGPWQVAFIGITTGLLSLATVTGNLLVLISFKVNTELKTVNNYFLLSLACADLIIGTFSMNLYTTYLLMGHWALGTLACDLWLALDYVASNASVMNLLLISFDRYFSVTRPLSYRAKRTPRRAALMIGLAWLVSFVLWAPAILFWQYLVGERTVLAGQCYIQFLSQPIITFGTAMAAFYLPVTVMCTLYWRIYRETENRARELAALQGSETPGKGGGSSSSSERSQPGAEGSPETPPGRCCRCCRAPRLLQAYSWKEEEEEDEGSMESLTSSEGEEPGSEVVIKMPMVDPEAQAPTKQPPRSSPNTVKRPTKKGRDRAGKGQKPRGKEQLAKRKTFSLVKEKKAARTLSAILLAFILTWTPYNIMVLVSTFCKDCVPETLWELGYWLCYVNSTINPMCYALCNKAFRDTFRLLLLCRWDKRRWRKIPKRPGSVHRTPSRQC
UniProt P08172, whole entry: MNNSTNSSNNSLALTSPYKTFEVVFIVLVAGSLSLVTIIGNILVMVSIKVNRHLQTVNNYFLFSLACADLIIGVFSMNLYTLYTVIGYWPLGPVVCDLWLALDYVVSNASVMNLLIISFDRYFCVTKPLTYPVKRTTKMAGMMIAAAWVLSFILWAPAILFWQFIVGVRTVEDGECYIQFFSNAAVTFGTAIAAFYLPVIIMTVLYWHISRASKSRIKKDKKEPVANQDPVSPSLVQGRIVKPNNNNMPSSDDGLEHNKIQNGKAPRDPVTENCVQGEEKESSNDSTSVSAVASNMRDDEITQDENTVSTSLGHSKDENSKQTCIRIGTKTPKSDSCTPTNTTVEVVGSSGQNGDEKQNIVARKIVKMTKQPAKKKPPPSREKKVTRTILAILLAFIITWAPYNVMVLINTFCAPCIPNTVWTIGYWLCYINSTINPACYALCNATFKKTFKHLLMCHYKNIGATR

The target of the next assay is T2, M(2) muscarinic receptor (Homo sapiens, UniProt P08172).
T2 construct: expressed in transfected cells
Kind of assay: R-SAT functional receptor assay, M(2). The class given is cell-based. The conditions noted are these: read-out: M2 pEC50 (converted).
Excerpt: as §1

The source of these data is patent US20050130961A1, “Muscarinic M1 receptor agonists for pain management” (priority 2003, published 2005).

Turning to `CCCCCCOc1nsnc1C1=CCCN(C)C1` [Xanomeline], the “agonist character at M(1) receptor, in words” value at M(1) muscarinic receptor was “potent and efficacious full agonists”. Also, the EC50 at M(2) muscarinic receptor is 316 nM.
